Laboratory results from patent publication US20120046305A1.

Sequences of proteins named here, by UniProt entry; tags and fusion partners are left off.
UniProt O75762, whole entry: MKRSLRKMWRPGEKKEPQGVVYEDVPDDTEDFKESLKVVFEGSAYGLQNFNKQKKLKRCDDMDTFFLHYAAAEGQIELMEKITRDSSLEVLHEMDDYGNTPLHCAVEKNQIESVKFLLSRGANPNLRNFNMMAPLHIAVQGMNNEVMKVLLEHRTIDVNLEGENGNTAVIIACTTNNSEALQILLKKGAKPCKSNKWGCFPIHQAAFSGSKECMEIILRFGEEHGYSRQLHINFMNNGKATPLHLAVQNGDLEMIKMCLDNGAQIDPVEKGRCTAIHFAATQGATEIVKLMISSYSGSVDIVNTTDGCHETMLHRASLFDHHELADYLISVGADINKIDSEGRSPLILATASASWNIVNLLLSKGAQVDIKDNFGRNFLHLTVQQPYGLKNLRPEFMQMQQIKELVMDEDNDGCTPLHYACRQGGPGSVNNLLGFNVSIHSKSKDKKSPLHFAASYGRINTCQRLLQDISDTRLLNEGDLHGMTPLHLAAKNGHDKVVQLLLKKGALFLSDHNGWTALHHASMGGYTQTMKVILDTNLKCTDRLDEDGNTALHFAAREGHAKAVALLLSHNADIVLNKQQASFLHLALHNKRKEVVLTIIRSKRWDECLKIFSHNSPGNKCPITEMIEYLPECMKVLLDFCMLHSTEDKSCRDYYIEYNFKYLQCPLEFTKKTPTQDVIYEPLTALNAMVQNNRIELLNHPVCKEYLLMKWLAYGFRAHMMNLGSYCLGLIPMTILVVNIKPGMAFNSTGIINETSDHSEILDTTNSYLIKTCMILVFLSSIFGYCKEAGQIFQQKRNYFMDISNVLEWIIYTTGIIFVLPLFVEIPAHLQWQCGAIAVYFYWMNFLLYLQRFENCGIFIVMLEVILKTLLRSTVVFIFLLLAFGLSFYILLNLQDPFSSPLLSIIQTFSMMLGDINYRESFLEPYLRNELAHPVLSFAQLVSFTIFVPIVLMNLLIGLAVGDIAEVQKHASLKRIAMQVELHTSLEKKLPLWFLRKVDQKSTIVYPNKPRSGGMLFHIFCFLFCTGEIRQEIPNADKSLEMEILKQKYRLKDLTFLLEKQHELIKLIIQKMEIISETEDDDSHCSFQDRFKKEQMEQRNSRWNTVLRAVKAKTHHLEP

Target: TRPA1 channel (Homo sapiens, UniProt O75762)
Test: Patch clamp experiments (perforated patch, AITC-activated TRPA1 current)
Settings: read-out: activity as measured in the patch clamp assay (IC50), Table 1; HEK293/TREx cells expressing TRPA1; current activated by 5 μM AITC; Table 1 compounds
From the text: Patch clamp experiments permit the detection of currents through the TRPA1 channel in the cell line described above. To permit recording of current at a stable level and prevent the “rundown” observed by other labs, it is necessary to use the perforated patch technique, which prevents dialysis of the cytoplasm with the pipette solution. In normal whole-cell patch clamp recordings, a glass electrode is brought into contact with a single cell and a high-resistance (gigaohm) seal is established with the cell membrane. The membrane is then ruptured to achieve the whole-cell configuration, permitting control of the voltage of the cell membrane and measurement of currents flowing across the membrane using the amplifier attached to the electrode and resulting in the replacement of cytoplasm with the pipette solution. […]
TRPA1 cells were induced 20-48 hours, removed from growth plates, and replated at low density (to attain good single-cell physical separation) on glass coverslips for measurement. […] Currents elicited were quantified at −80 mV and +80 mV. The internal solution consisted of 140 mM cesium aspartate, 10 mM EGTA, 2.2 mM CaCl2, 2.08 mM MgCl2 and 10 mM HEPES, pH 7.2, with 50 nM calculated free Ca^2+ and 60 mg/ml amphotericin added immediately prior to experiments. […]

IC50 [µM]	SMILES
> 10	Cn1c(=O)c2c(ncn2CC(=O)NCC(C)(c2ccccc2)c2ccccc2)n(C)c1=O
< 1	Cc1ccc(NC(=O)C(C)n2cnc3c2c(=O)n(C)c(=O)n3C)cc1 (centres unmarked)
